In assay [1] the target is T1, MCR-1 (Homo sapiens, UniProt Q01726). As to the kind of experiment: cAMP assay for melanocortin receptors, HEK 293 cells expressing MCR-1. The procedure: HEK 293 cells expressing MCR-1, MCR-3, MCR-4 and MCR-5 were used (see Example II). Cells were plated at 20,000 cells per well in a 96-well plate coated with collagen. The next day, cells were pretreated with 75 μl of 0.4 mM 3-isobutyl-1-methylxanthine (IBMX) in low serum medium containing DMEM, 25 mM HEPES, non-essential amino acids, vitamins, 100 units/ml penicillin, 100 μg/ml streptomycin and 0.1% COSMIC CALF SERUM. IBMX is an inhibitor of cAMP phosphodiesterase. The pretreatment was carried out for 10 min at 37° C.
Following pretreatment, 25 μl of diluted isoquinoline compound was added to the wells, and cells were incubated for 15 min at 37° C. Cells were lysed by adding 25 μl saponin lysis buffer and incubating 2 to 5 min. Plates were covered and stored at −20° C.
cAMP concentration was determined by ELISA. Briefly, 96 well ELISA plates were coated with goat anti-cAMP antibody in PBS for 12 to 72 hr at 4° C. 50 μl of sample was mixed with 50 μl of cAMP ELISA buffer containing 1% bovine serum albumin, 10% heat-inactivated donor horse serum, 1% normal mouse serum and 0.05% TWEEN-20 in PBS, and the diluted sample was added to the coated ELISA plate. Standards of known concentrations of cAMP were added to separate wells. 25 μl of 16 ng/ml cAMP-conjugated horse radish peroxidase (HRP) (cAMP-HRP) was added to each well, and the plates were […] at room temperature. Plates were washed and the binding of cAMP-HRP was detected with 3,3′,5,5′-tetramethylbenzidine (TMB) and hydrogen peroxide using standard immunoassay procedures.
Various isoquinoline compounds were tested for their ability to activate MC receptor by measuring cAMP as described in Example III.

Sequences of proteins named here, by UniProt entry; tags and fusion partners are left off.
UniProt Q01726, whole entry: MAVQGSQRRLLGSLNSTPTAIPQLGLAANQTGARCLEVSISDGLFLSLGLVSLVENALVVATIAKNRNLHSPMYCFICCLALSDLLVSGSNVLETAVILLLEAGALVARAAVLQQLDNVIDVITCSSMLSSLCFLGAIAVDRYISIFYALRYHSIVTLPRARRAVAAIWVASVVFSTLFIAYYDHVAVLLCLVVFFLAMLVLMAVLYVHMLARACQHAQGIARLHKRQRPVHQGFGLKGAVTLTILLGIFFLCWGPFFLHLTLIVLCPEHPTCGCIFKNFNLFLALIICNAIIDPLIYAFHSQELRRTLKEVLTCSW
UniProt P33032, whole entry: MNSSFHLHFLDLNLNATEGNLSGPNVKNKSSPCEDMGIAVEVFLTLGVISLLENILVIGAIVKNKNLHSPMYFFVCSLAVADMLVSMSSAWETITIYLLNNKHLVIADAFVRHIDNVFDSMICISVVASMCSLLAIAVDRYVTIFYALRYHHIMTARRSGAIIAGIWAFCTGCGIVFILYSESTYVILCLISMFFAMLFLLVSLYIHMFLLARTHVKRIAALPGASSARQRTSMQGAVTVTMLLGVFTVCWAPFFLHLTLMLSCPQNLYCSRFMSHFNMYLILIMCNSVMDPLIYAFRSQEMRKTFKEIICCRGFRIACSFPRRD
UniProt P41968, whole entry: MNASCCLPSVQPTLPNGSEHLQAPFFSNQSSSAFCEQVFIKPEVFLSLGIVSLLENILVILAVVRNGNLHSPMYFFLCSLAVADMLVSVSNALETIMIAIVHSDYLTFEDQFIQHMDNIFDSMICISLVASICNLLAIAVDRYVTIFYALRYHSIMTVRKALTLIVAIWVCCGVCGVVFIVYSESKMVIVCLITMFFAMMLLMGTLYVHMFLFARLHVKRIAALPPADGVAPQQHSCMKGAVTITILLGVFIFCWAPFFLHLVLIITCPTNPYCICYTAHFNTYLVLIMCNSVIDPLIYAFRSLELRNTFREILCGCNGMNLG
UniProt P32245, whole entry: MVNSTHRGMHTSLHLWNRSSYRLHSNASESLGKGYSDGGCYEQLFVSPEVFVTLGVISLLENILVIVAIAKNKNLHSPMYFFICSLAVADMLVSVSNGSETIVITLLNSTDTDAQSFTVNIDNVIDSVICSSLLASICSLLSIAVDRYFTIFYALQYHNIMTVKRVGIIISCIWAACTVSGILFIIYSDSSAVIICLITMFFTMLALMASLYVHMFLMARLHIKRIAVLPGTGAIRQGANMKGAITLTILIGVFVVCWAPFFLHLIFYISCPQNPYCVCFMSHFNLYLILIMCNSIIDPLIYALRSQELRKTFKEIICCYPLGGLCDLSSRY

The target in assay [2] is MCR-5 (Homo sapiens, UniProt P33032). Put plainly: Melanocortin receptor binding assay, competition with 125I-HP 467, HEK 293 cells expressing hMCR-5. The settings on record: read-out: MC-5 IC50; binding to MCR-5, HEK 293 cells. An excerpt:
(§1) All cell culture media and reagents were obtained from GibcoBRL (Gaithersburg Md.), except for COSMIC CALF SERUM (HyClone; Logan Utah). HEK-293 cell lines were transfected with the human MC receptors hMCR-1, hMCR-3, and hMCR-4 (Gantz et al., Biochem. Biophys. Res. Comm. 200:1214-1220 (1994); Gantz et al., J. Biol. Chem. 268:8246-8250 (1993); Gantz et al. J. Biol. Chem. 268:15174-15179 (1993); Haskell-Leuvano et al., Biochem. Biophys. Res. Comm. 204:1137-1142 (1994); each of which is incorporated herein by reference). […]
(§2) GF/B filter plates were prepared by soaking for at least one hour in 5 mg/ml BSA and 10 mM CaCl2. […] Filter plates were counted using a Packard Topcount (Packard Instrument Co.) and data analyzed using GraphPad PRISM v2.0 (GraphPad Software Inc.; San Diego Calif.) and Microsoft EXCEL v5.0a (Microsoft Corp.; Redmond Wash.).
(§3) To assay isoquinoline compounds, binding assays were performed in duplicate in a 96 well format. […] Cells were harvested on GF/B filter plates as described above and counted. […]

For assay [3], the target named is MCR-3 (Homo sapiens, UniProt P41968). Put plainly: Melanocortin receptor binding assay, competition with 125I-HP 467, HEK 293 cells expressing hMCR-3. The settings on record: read-out: MC-3 IC50; binding to MCR-3, HEK 293 cells.
Excerpt: as §1, §2, §3

In assay [4] the target is MCR-4 (Homo sapiens, UniProt P32245). As to the kind of experiment: Melanocortin receptor binding assay, competition with 125I-HP 467, HEK 293 cells expressing hMCR-4. The settings on record: for IC50: read-out: MC-4 IC50.
Assay [5] addresses T1, MCR-1. Put plainly: Melanocortin receptor binding assay, competition with 125I-HP 467, HEK 293 cells expressing hMCR-1. The settings on record: for IC50: read-out: MC-1 IC50.
Setting [6] is: TRG 2408 and TRG 2409 libraries, inhibition of 125I-HP 467 binding.
[7] abbreviates: TRG 2414 library, inhibition of binding of 125I-HP 467, HEK 293 cells expressing MCR-4.
[8] abbreviates: TRG 2414 library, inhibition of binding of 125I-HP 467, HEK 293 cells expressing MCR-1.

Like-named read-outs stand apart in the source and are kept apart here.

The term EC50 denotes the midpoint of the concentration-response curve. The IC50 is the midpoint of a concentration-inhibition curve. Take `CN[C@H](CN)CCCCN1Cc2ccccc2C(CNCc2ccccc2O)C1c1ccc(Br)cc1` (stereo partly shown): in assay [1] (maximum amount of cAMP), the “MC-1 Max (pmole) cAMP produced” value came to 20 pmol. Moreover, the EC50 in assay [1] (read-out: MC-1 EC50 (cAMP), 50% of maximal cAMP production) came out at 2.2 µM. Also, the IC50 was determined as 1 µM in assay [2] and 0.9 µM in assay [3].

Regarding `CCNc1ccc(C2C(CNCc3ccccc3O)c3ccccc3CN2CCCC[C@H](CN)NCCc2ccccc2)cc1` (stereo partly shown), the IC50 in assay [4] (setting [6]) turned out to be 9.71 µM; in assay [5] (setting [6]), 1.57 µM.

As for `COc1ccc(CNC(=O)C2c3ccccc3C(=O)N(CCCC[C@H](NC(=O)Cc3ccccc3)C(N)=O)C2c2ccc(Cl)cc2Cl)cc1` (stereo partly shown), the “MC-4 IC50” value in assay [4] (setting [7]) is “no fit”. Also, in assay [5] (setting [8]), the “MC-1 IC50” value is recorded as “no fit”.

On to `NCCN[C@@H](CN)CCCCN1Cc2ccccc2C(CNCc2ccccc2O)C1c1ccc(-c2ccccc2)cc1` (stereo partly shown), for which the IC50 worked out at 28.8 µM in assay [4] (setting [6]) and 4.24 µM in assay [5] (setting [6]).

Turning to `CCNc1ccc(C2C(CNCc3ccccc3O)c3ccccc3CN2CCCC[C@H](CN)NC)cc1` (stereo partly shown), the values for the IC50 in assay [4] (setting [6]) and in assay [5] (setting [6]) were 38 µM and 1.02 µM, respectively.

Consider `CCOc1ccccc1CNCC1c2ccccc2CN(CCCC[C@H](N)CN)C1c1ccccc1Br` (stereo partly shown), for which the IC50 was 1.5 µM in assay [4] (setting [7]) and 2.33 µM in assay [5] (setting [8]).

`NC[C@@H](N)CCCN1Cc2ccccc2C(CNCc2ccccc2O)C1c1ccc(-c2ccccc2)cc1` (stereo partly shown): the IC50 is 12.5 µM in assay [4] (setting [6]) and 2.54 µM in assay [5] (setting [6]).

Turning to `CNCCN[C@H](CN)CCCCN1Cc2ccccc2C(CNCc2ccccc2O)C1c1ccc(-c2ccccc2)cc1` (stereo partly shown), the IC50 in assay [4] (setting [6]) stood at 14.8 µM; in assay [5] (setting [6]) it was 1.32 µM.

Take `CNCCN[C@H](CN)CCCCN1Cc2ccccc2C(CNCc2ccccc2O)C1c1ccc(Cl)cc1Cl` (stereo partly shown): the IC50 stood at 4.9 µM in assay [4] (setting [6]) and 1.84 µM in assay [5] (setting [6]).

In the case of `CNCCN[C@H](CN)CCN1Cc2ccccc2C(CNCc2ccccc2O)C1c1ccc(-c2ccccc2)cc1` (stereo partly shown), the IC50 in assay [4] (setting [6]) turned out to be 9.73 µM; in assay [5] (setting [6]), 4.75 µM.

Take `CNCCN[C@H](CN)CCN1Cc2ccccc2C(CNCc2ccccc2O)C1c1ccc(Cl)cc1Cl` (stereo partly shown): the IC50 is 6.47 µM in assay [4] (setting [6]) and 3.87 µM in assay [5] (setting [6]).

Regarding `CN[C@@H](CN)CCCCN1Cc2ccccc2C(CNCc2ccccc2O)C1c1ccc(Cl)cc1Cl` (stereo partly shown), the figures for the IC50 in assay [4] (setting [6]) and in assay [5] (setting [6]) were 4.89 µM and 2.77 µM, respectively.

`NC(=O)[C@H](CCCCN1C(=O)c2ccccc2C(C(=O)NCCc2cccc(Cl)c2)C1c1ccc(Oc2ccccc2)cc1)NC(=O)c1ccccc1` (stereo partly shown): the “MC-4 IC50” value in assay [4] (setting [7]) was “no fit”. In addition, the “MC-1 IC50” value in assay [5] (setting [8]) is on record as “no fit”.

With `NC[C@@H](CCCCN1Cc2ccccc2C(CNCc2ccccc2O)C1c1ccc(-c2ccccc2)cc1)NCCc1ccccc1` (stereo partly shown), the IC50 in assay [4] (setting [6]) was 18.1 µM; in assay [5] (setting [6]), 8.81 µM.

Regarding `NC[C@H](CCCCN1Cc2ccccc2C(CNCc2ccccc2O)C1c1ccc(-c2ccccc2)cc1)NCCc1ccccc1` (stereo partly shown), the IC50 worked out at 12.5 µM in assay [4] (setting [6]) and 4.06 µM in assay [5] (setting [6]).

Take `CNCCN[C@H](CN)CCCN1Cc2ccccc2C(CNCc2ccccc2O)C1c1ccc(Cl)cc1Cl` (stereo partly shown): the half-maximal inhibitory concentration (IC50) was found to be 3.88 µM in assay [4] (setting [6]) and 1.66 µM in assay [5] (setting [6]).

Consider `NCCN[C@@H](CN)CCCCN1Cc2ccccc2C(CNCc2ccccc2O)C1c1ccc(Cl)cc1Cl` (stereo partly shown), for which the IC50 came to 5.57 µM in assay [4] (setting [6]) and 1.7 µM in assay [5] (setting [6]).

For `CCNc1ccc(C2C(CNCc3ccccc3O)c3ccccc3CN2CCCC[C@H](CN)NCCN)cc1` (stereo partly shown), the results for the IC50 in assay [4] (setting [6]) and in assay [5] (setting [6]) were 12.6 µM and 0.47 µM, respectively.

Take `CCNc1ccc(C2C(CNCc3ccccc3O)c3ccccc3CN2CCCC[C@@H](CN)NCCc2ccccc2)cc1` (stereo partly shown): the IC50 in assay [4] (setting [6]) is 8.55 µM; in assay [5] (setting [6]), 1.18 µM.

For `CCNc1ccc(C2C(CNCc3ccccc3O)c3ccccc3CN2CC[C@H](N)CN)cc1` (stereo partly shown), the figures for the IC50 in assay [4] (setting [6]) and in assay [5] (setting [6]) were 15.9 µM and 3.31 µM, respectively.

Turning to `CCCOc1ccc(C2C(C(=O)NCc3ccc(OC)cc3)c3ccccc3C(=O)N2CCCC[C@H](NC(=O)Cc2ccccc2)C(N)=O)cc1` (stereo partly shown), the “MC-4 IC50” value in assay [4] (setting [7]) is “no fit”. Moreover, the “MC-1 IC50” value in assay [5] (setting [8]) is “no fit”.

As for `CC(C)Cc1ccc(C(C)C(=O)N[C@@H](CCCCN2C(=O)c3ccccc3C(C(=O)NCCc3cccc(Cl)c3)C2c2cc(C(F)(F)F)cc(C(F)(F)F)c2)C(N)=O)cc1` (stereo partly shown), the “MC-4 IC50” value in assay [4] (setting [7]) was “no fit”. In addition, the “MC-1 IC50” value in assay [5] (setting [8]) was “no fit”.

As to `NC[C@H](CCCN1Cc2ccccc2C(CNCc2ccccc2O)C1c1ccc(Cl)cc1Cl)NCCc1ccccc1` (stereo partly shown), the IC50 in assay [4] (setting [6]) stood at 13.3 µM; in assay [5] (setting [6]), 4.66 µM.

Consider `COc1ccccc1CCNC(=O)C1c2ccccc2C(=O)N(CCCC[C@H](NC(=O)c2ccccc2)C(N)=O)C1c1cc(C(F)(F)F)cc(C(F)(F)F)c1` (stereo partly shown), for which the “MC-4 IC50” value in assay [4] (setting [7]) is listed as “no fit”. In assay [5] (setting [8]), the “MC-1 IC50” value was “no fit”.

For `CCNc1ccc(C2C(CNCc3ccccc3O)c3ccccc3CN2CCCC[C@@H](CN)NCCN)cc1` (stereo partly shown), the IC50 in assay [4] (setting [6]) is 14.8 µM; in assay [5] (setting [6]) it was 0.96 µM.

(Values after patent US6608082B1, “Treatment of erectile dysfunction using isoquinoline compound melanocortin receptor ligands” (Lion Bioscience AG, priority 1998, dated 2003).)
